Measured values as given in publication PMC11915030 (ACS Pharmacology & Translational Science, 2025).
Where two headings read alike, the source gives them in different places.

Sequences of proteins named here, by UniProt entry; tags and fusion partners are left off.
UniProt P35372, whole entry: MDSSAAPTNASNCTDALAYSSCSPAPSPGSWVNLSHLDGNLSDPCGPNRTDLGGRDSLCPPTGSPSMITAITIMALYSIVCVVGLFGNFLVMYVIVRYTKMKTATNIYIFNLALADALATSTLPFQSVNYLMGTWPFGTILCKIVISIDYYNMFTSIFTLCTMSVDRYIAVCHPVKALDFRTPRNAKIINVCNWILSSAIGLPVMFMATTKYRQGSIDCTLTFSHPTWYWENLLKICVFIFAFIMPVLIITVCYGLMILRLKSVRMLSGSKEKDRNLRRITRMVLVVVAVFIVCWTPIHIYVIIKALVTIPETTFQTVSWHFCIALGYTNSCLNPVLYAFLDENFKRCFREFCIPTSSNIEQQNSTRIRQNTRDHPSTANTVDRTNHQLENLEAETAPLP

Tests used:
MOR [1] = molecular target: T1, MOR (Homo sapiens, UniProt P35372); test: cell-based; conditions: read-out: Emax for β-arrestin recruitment
Protocol: The β-Arrestin recruitment assay was performed as previously described.[41] Briefly, the PathHunter β-Arrestin assay was used to monitor GPCR activation through β-arrestin recruitment. This assay also utilized EFC technology, with β-Gal as the reporter enzyme. In this system, the Enzyme Acceptor (EA) fragment was fused to β-arrestin, and the ProLink (PK) fragment was fused to the GPCR of interest. Upon GPCR activation, EA and PK complementation restored β-Gal activity, generating a chemiluminescent signal that was measured using PathHunter Detection Reagents.

MOR [2] = molecular target: T1, MOR; test: cell-based; conditions: read-out: Emax for G-protein activation
Protocol: The G-protein pathway activation was performed as previously described.[40] Briefly, the G-protein pathway activation was measured using HitHunter cAMP assays, which quantify cAMP, a secondary messenger involved in G-protein-coupled receptor (GPCR) signaling. This assay employed Enzyme Fragment Complementation (EFC) technology with β-galactosidase (β-Gal) as the reporter enzyme. Upon activation, β-Gal produces a chemiluminescent signal that is detected using a microplate reader, providing a quantitative measure of G-protein pathway activity.

CSCC[C@H](NC(=O)[C@H](Cc1ccccc1)NC(=O)CNC(=O)CNC(=O)[C@@H](N)Cc1ccc(O)cc1)C(=O)O [[Met^5]enkephalin]
Emax (MOR [1]): 100% | Emax (MOR [2]): 100%
